Assays:
[1] = system: human CD4/8+ T cells; assay: Intracellular IFN-γ in expanded T cells after PMA/ionomycin stimulation; assay type: cell-based; conditions: 25 ng/mL PMA and 0.5 μM ionomycin, 6 h
Experimental: T cell activity was determined by analysis of cytokine secretion. To investigate whether these expanded T cells are capable of responding to extracellular stimulation, T cells were stimulated with 25 ng/mL phorbol myristate acetate (PMA) and 0.5 μM ionomycin. After 90 min of stimulation, monensin, 1:50, (GolgiStop, BD Biosciences) was added. After 6 h, cells were stained for surface expression of CD4+, CD8+, CD45RA+, CD95+, CCR7+, CD62L+, and subsequently, fixed, permeabilized and stained for intracellular cytokine, IFN-7. After 6 hr, we observed a clear increase in accumulated intracellular IFN-γ, an important effector of the anti-tumor response when T cells had been expanded with IL-2 and Cbl inhibitor.

[2] = system: CD8+ and CD4+ TIL; assay: CD107a mobilization and granzyme B in pre-REP TIL after anti-CD3/CD28 stimulation; assay type: cell-based, human
Experimental: To investigate whether expanded TIL are capable of responding to extracellular stimulation, TIL were stimulated with anti-CD3/CD28 for 6 hours in the presence of secretion inhibitors and anti-CD107a. […] Upon stimulation, an average of 40% of CD8^+ TIL expanded with IL2 were positive for CD107A expression, and greater than 60% of CD8+ TIL expanded with IL2+ compound 103 were capable of producing CD107a (FIG. 27A). Upon stimulation, an average of 50% of CD4+ TIL expanded with IL2 were positive for CD107A expression, and greater than 60% of CD4+ TIL expanded with IL2+ compound 103 were capable of producing CD107a (FIG. 27B).
In the context of cytotoxicity, granzyme B (Grb), a protease secreted to mediate apoptosis, was assessed. […] From this, we conclude that Cbl inhibitor appears to expand TIL with increased cytotoxic potential.

[3] = system: human tumor-infiltrating lymphocytes (TIL); assay: Flow cytometry immunophenotyping of expanded TIL (lineage and memory markers); assay type: cell-based
Experimental: (§1) For TIL generation, single 8 mm^3 tumor fragments were added to each well of a 24-well plate containing 2 mL RPMI medium containing 25 mM HEPES, 10% heat inactivated human AB serum, 100 U/mL penicillin, 100 μg/ml streptomycin, 2 mM L-glutamine, 10 μg/ml gentamycin and 0.25 μg/ml Fungizone (Complete Medium; CM) with either 6000 IU/mL IL-2 in the presence or absence of 0.1-10 μM of a Cbl inhibitor, or with 0.1-10 μM of the Cbl inhibitor alone. The plates were placed in a humidified 37° C. incubator with 5% CO2. Half of the medium was replaced every two days after culture initiation. As wells became confluent, the contents were mixed vigorously, split into two daughter wells, and filled to 2 mL per well with RPMI medium with either 6000 IU/mL IL-2 in the presence or absence of 0.1-10 μM of the Cbl inhibitor, or with 0.1-10 μM of the Cbl inhibitor alone. Subsequently, half the media was replaced thrice weekly, cultures were split to maintain a cell density of 1×10^6 cells/mL. […] Mitochondrial markers including, Mitotracker, Mitoprobe, and 2-NBDG may also be used to assess differentiation and/or activation of cells. The initial TIL generation step may be shortened from 28 days to between about 7-11 days with similar results.
T lymphocytes were defined based on lineage and differentiation marker expression according to the developmental model (Restifo, Blood, 124:476-477, 2014), as shown in Table 4. […] Monocytes (CD14+), B cells (CD20+) and NK cells (CD56+) accounted for <10% of the total number of cells.

[4] = system: human tumor-infiltrating lymphocytes (TIL); assay: Expansion of TIL ex vivo from human tumor fragments (pre-REP, 24-well plate); assay type: cell-based; conditions: 6000 IU/mL
Experimental: Samples of human ovarian and colon tumors were obtained from the Cooperative Human Tissue Network (CHTN, c/o Vanderbilt University Medical Center, Nashville, Tenn.). Solid tumor specimens were carefully dissected free of surrounding fatty and necrotic areas. The tumors were sliced into 8 mm^3 (2×2×2 mm^3) fragments under sterile conditions using a scalpel and a scalpel holder.
as §1
The data in Figures and Tables 2-7 are with compound 103. […] For this reason, the total cell numbers are shown in Table 2 as a percentage of the IL-2 alone condition. […] FIGS. 4A-4D show the average numbers of cells with IL-2 alone; with 0.1, 1, or 10 μM of Cbl inhibitor; or IL-2 in combination with 0.1, 1, or 10 μM of Cbl inhibitor with ovary TIL and colon TIL. […] Thus, Cbl inhibitors support cell viability in the absence of IL 2 and enhance the effects of IL-2 in some tumor samples.

[5] = system: human tumor-infiltrating lymphocytes (TIL); assay: Rapid Expansion Protocol (REP) of TIL; assay type: cell-based; conditions: 6000 IU/mL
Experimental: Rapid Expansion Protocol (REP) used OKT3 (anti-CD3) antibody (Thermo Fisher Scientific) and IL-2 in the presence of irradiated, allogeneic feeder cells (Astarte Biologics) at a 200:1 ratio of feeder cells to responding TIL cells. PBMC, OKT3 antibody (30 ng/mL), complete medium (“CM”), AIM V media (GIBCO/BRL), and TIL effector cells were combined, mixed, and aliquoted to a 75 cm^2 tissue culture flask. Flasks were incubated upright at 37° C. in 5% CO2. IL-2 (6000 IU/mL) and/or Cbl inhibitor (0.1, 1, 10 μM) were added on day 2. On day 5, culture supernatant was removed by aspiration and media was replaced with a 1:1 mixture of CM/AIM V containing 6000 IU/mL IL-2 and/or Cbl inhibitor. On day 6, and every day thereafter, cell concentration was determined, and cells were split into additional flasks with additional medium containing 6000 CU/mL IL-2/Cbl inhibitor as needed to maintain cell densities around 1×10^6 cells/mL. About 14 days after initiation of the REP, cells were harvested and cryopreserved for future experimental analysis.
Only TIL that expanded during the pre-REP protocol were further expanded in the REP protocol: TIL1, TIL3, TIL4 & TIL6. The magnitude of TIL expansion during the REP varied between the tumor samples. For this reason, the total cell numbers are shown in Table 3 as a percentage of the IL-2 alone condition during the REP expansion protocol.

[6] = system: human T cells from peripheral blood mononuclear cells; assay: Expansion of CMV pp65 reactive T cells from peripheral blood mononuclear cells; assay type: cell-based
Experimental: (§2) CMV pp65 (495-503) reactive T cells were expanded by thawing CMV seropositive donors (Conversant) and 2×10^6 cells/ml were resuspended in RPMI medium (Gibco) supplemented with 1% GlutaMax (Gibco), 1% non-essential amino acids (NEAA), penicillin/streptomycin (Gibco), 10% heat inactivated human AB serum (Corning), 1 μg/ml CMV pp65 (495-503) (Anaspec), 2 ng/mL IL-2 (R&D), and/or Cbl inhibitor (01, 1, 10 μM). PBMCs were cultured for eight days with IL-2 and/or Cbl inhibitor and replenished at day three and day five. At day eight, cells were harvested, and re-plated in low dose IL-2 (100 U/ml) and/or Cbl inhibitor at 2 million/ml in complete RPMI media for two days. At day eleven, cells were pooled and counted, and immunophenotyped at day 11 by flow cytometry by measuring expression of lineage (CD4, CD8) and differentiation (including CD45RA, CD45RO, CD95, CCR7, CD62L, TCF1, PD-1, TIM3, LAG3) markers.

[7] = system: human T cells from donor PBMC; assay: Flow cytometry immunophenotyping of T cells expanded from donor PBMC; assay type: cell-based; conditions: IL-2 alone
Experimental: as §2
T lymphocytes were defined based on lineage and differentiation marker expression according to the developmental model (Restifo, Blood, 124:476-477, 2014), as shown in Table 4.

IL-2: cytokine used as standard culture condition for immune cell expansion (6000 IU/mL TIL, 2 ng/mL PBMC, 300 IU OT-1)
CD4/8+ T cells positive for IFN-γ expression [1]: approximately 50% | CD8+ TIL positive for CD107A expression ([2]; anti-CD3/CD28 for 6 hours (FIG. 27A)): 40% | CD4+ TIL positive for CD107A expression ([2]; anti-CD3/CD28 for 6 hours (FIG. 27B)): 50% | CD4 TCM CD62L+ CCR7+, percentage of total TIL cell number on day 28 ([3]; TIL1 population, IL-2 alone): 1.8% | CD4 TEM CD62L− CCR7−, percentage of total TIL cell number on day 28 ([3]; TIL1 population, IL-2 alone): 48.9% | CD8 TCM CD62L+ CCR7+, percentage of total TIL cell number on day 28 ([3]; TIL1 population, IL-2 alone): 4.2% | CD8 TEM CD62L− CCR7−, percentage of total TIL cell number on day 28 ([3]; TIL1 population, IL-2 alone): 48.7% | Expansion of CD8+ versus CD4+ T lymphocytes in TIL culture ([3]; tumor sample, FIG. 7): essentially equivalent numbers of CD4+ and CD8+ T lymphocytes | Percentage of total cell number relative to IL-2 alone on day 17 ([4]; TIL1 (ovary)): 100% | Percentage of total cell number relative to IL-2 alone on day 17 ([4]; TIL2 (ovary)): 100% | Percentage of total cell number relative to IL-2 alone on day 17 ([4]; TIL3 (ovary)): 100% | Percentage of total cell number relative to IL-2 alone on day 17 ([4]; TIL4 (colon)): 100% | Percentage of total cell number relative to IL-2 alone on day 17 ([4]; TIL5 (ovary)): 100% | Percentage of total cell number relative to IL-2 alone on day 17 ([4]; TIL6 (ovary)): 100% | Percentage of total cell number relative to IL-2 alone on day 42 (Pre-REP and REP) ([5]; TIL1 (ovary)): 100% | Percentage of total cell number relative to IL-2 alone on day 42 (Pre-REP and REP) ([5]; TIL3 (ovary)): 100% | Percentage of total cell number relative to IL-2 alone on day 42 (Pre-REP and REP) ([5]; TIL4 (colon)): 100% | Percentage of total cell number relative to IL-2 alone on day 42 (Pre-REP and REP) ([5]; TIL6 (ovary)): 100% | Percentage of total cell number relative to IL-2 alone on day 11 ([6]; Donor 1, 2 ng/mL): 100% | Percentage of total cell number relative to IL-2 alone on day 11 ([6]; Donor 2, 2 ng/mL): 100% | Percentage of total cell number relative to IL-2 alone on day 11 ([6]; Donor 3, 2 ng/mL): 100% | CD4 TCM, percentage of total cell number on day 11 [7]: 43.2% | CD4 TEM, percentage of total cell number on day 11 [7]: 24.9% | CD4 TsCM, percentage of total cell number on day 11 [7]: 16.9% | CD8 TCM, percentage of total cell number on day 11 [7]: 25.4% | CD8 TEM, percentage of total cell number on day 11 [7]: 11% | CD8 TsCM, percentage of total cell number on day 11 [7]: 39.9%

From patent publication US12594263B2, “CBL inhibitors and compositions for expansion of immune cells” (Nurix Therapeutics, Inc., priority 2019, dated 2026)
